Columns and labels:
Staphylococcus aureus [1] = settings: isolate 3
Staphylococcus aureus [2] = settings: isolate 4

## GENTAMICIN
Staphylococcus aureus [1]
  MIC: 0.1 µM
Staphylococcus aureus [2]
  MIC: 0.1 µM

From ChEMBL document CHEMBL4425163, “Structure elucidation of anti-methicillin resistant Staphylococcus aureus (MRSA) flavonoids from balsam poplar buds” (Bioorg Med Chem, 2016)
